For 1 molecule, Ratio results are on record in ChEMBL document CHEMBL1129727, “Chiral pyrrolo[2,3-d]pyrimidine and pyrimido[4,5-b]indole derivatives: structure-activity relationships of potent, highly stereoselective A1-adenosine receptor antagonists” (J Med Chem, 1996).

By UniProt entry, the sequences of proteins in these tests, tags left out.
UniProt P25099, whole entry: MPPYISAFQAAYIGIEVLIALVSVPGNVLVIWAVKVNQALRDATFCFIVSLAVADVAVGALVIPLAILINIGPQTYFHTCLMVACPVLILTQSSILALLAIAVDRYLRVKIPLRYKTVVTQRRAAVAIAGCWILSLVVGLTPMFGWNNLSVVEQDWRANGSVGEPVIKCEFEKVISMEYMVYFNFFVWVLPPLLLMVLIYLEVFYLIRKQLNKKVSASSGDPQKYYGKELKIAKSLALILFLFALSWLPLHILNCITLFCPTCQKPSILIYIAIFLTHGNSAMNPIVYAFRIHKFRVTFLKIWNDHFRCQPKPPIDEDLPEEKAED

In this test the target is Adenosine receptor A1 (Rattus norvegicus) (UniProt P25099). In words: Ratio between solubility and A1 receptor affinity.

As to `C[C@H](c1ccccc1)n1c2ccccc2c2c(N)nc(-c3ccccc3)nc21`, the Ratio amounted to 185.
